The record followed here is paper PMC4465237 (The Biochemical journal, 2013).

Assay [1] concerns the target T1, FLAG-hSIRT1-FL (full length human SIRT1, FLAG-tagged) (human, UniProt Q96EB6 1-747).
T1 sequence (looked up): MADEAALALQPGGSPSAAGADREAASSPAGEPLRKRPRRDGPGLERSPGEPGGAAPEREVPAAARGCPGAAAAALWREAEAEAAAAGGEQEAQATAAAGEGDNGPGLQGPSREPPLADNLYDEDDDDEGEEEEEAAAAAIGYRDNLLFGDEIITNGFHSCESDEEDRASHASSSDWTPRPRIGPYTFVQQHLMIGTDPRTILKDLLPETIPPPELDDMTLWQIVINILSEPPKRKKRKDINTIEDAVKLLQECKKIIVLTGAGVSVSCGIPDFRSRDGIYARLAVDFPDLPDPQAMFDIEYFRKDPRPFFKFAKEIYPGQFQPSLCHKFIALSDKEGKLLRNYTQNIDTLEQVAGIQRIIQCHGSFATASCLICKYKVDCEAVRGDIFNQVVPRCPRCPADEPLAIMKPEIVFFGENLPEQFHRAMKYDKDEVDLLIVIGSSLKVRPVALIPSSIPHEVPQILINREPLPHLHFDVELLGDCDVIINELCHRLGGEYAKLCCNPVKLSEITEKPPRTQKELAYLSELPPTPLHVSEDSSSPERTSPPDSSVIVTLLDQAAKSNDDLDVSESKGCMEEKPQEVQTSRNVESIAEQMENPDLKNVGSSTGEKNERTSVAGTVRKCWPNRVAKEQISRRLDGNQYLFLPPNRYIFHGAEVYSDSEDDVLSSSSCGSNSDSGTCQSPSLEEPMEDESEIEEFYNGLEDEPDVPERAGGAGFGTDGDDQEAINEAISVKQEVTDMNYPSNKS
Briefly: pull-down.

Assay [2] deals with T2, FLAG-hSIRT1-NT (N-terminus truncated human SIRT1 with residues 7–83 deleted, FLAG-tagged) (human, UniProt Q96EB6 1-747, residues 7–83 deleted).
T2 sequence (looked up): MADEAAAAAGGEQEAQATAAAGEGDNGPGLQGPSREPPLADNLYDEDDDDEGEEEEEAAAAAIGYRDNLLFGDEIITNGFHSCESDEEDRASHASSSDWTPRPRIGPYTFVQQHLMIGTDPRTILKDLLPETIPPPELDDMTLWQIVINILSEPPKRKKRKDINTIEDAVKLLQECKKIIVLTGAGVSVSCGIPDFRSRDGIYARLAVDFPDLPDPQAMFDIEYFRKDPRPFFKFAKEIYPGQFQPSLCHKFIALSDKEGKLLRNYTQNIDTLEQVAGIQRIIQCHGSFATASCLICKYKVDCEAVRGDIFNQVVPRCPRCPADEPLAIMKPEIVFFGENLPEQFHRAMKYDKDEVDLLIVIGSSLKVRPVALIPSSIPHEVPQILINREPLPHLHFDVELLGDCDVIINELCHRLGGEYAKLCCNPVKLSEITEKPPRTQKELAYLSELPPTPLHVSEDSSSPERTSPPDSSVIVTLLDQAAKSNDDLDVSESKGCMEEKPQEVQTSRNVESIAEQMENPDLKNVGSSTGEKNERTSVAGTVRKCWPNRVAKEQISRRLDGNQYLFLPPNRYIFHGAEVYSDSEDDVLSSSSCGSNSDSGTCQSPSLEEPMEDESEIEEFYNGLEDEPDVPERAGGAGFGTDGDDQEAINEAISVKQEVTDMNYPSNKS
Nature of the assay: pull-down.

B1: GST-hTDG-FL (human thymine DNA glycosylase, intact, GST fusion) (enzyme, UniProt Q13569 1-410, looked up)
chain: MEAENAGSYSLQQAQAFYTFPFQQLMAEAPNMAVVNEQQMPEEVPAPAPAQEPVQEAPKGRKRKPRTTEPKQPVEPKKPVESKKSGKSAKSKEKQEKITDTFKVKRKVDRFNGVSEAELLTKTLPDILTFNLDIVIIGINPGLMAAYKGHHYPGPGNHFWKCLFMSGLSEVQLNHMDDHTLPGKYGIGFTNMVERTTPGSKDLSSKEFREGGRILVQKLQKYQPRIAVFNGKCIYEIFSKEVFGVKVKNLEFGLQPHKIPDTETLCYVMPSSSARCAQFPRAQDKVHYYIKLKDLRDQLKGIERNMDVQEVQYTFDLQLAQEDAKKMAVKEEKYDPGYEAAYGGAYGENPCSSEPCGFSSNGLIESVELRGESAFSGIPNGQWMTQSFTDQIPSFSNHCGTQEQEEESHA
With B1, the binding result in assay [1] and in assay [2] was “binds” each time.
